These results are taken from patent US12102672B2, “Immunogenic sequences from a phage tail length tape measure protein, bacteria expressing the same and their use in treating a cancer” (INSTITUT GUSTAVE ROUSSY, priority 2017, dated 2024).

The assay deals with splenic CD8+ T cells. The assay can be described thus: IFNγ ELISpot recall assay of splenic CD8+ T cells with DCs pulsed with heat-inactivated bacteria or peptides. The assay is classed as cell-based, mice. Particulars: Example 12, FIG. 27E. As for the experimental part: FIG. 9. Experimental immunization protocols to elucidate the immunogenicity of EH peptides. […] 5 days after the first oral gavage, mice are treated with CTX. One week post-CTX, CD8+ T cells are isolated from spleen. These CD8+ T cells are incubated with dendritic cells (DCs) pulsed with 20 μg/ml of peptides (during 1 hour) or with heat-inactivated bacteria (during 6 hours). Inactivation of bacteria consists in incubation at 65° C. during 2 hours. After 24 hours of culture, ELIspot of IFNγ is performed.
FIG. 10. Cross-reactivity between the two E. hirae 708 and 13144 species for CTL splenic reactivity. Number of IFNγ spot representing IFNγ-secreting CD8+ T cells after co-culture with DCs pre-incubated with or without heat-inactivated bacteria (708, 13144, EH17 and L. plantarum).
FIG. 13. Peptides from group 7 containing the TMP1 and TMP2 epitopes activate CD8+ T cells from spleen of mice immunized against E. hirae 13144. Number of IFNγ spot, representing IFNγ-secreting CD8+ T cells, after incubation with DCs pulsed with 13 different group of peptide (Table 6). Just group n° 1 (A) and group n° 7 (B) are shown. (C, E) Number of IFNγ spot, representing IFNγ-secreting CD8+ T cells, after incubation with DCs pulsed with 4 peptides belong to group n° 7 (in table 7). (D) Sequence alignment of TMP1 and TMP2 of EH10815 (SEQ ID Nos: 228 and 229 respectively) compared to EH13144 (fragments of SEQ ID NO: 1) at the level of immunogenic peptides. Amino acid sequence […] corresponds to SEQ ID No: 13. Amino acid sequence […] corresponds to SEQ ID No: 217. Amino acid sequence […] corresponds to SEQ ID Nos: 14. Amino acid sequence AlIEFIKGL corresponds to SEQ ID No: 218. (E) In vitro reactivity of splenic CTL in a recall response to TMP1 and TMP2 as well as Group7 after in vivo immunization with other strains of EH.
A and C. Experimental setting. […] D-E. Ex vivo recall assays. […] Each dot represents one mouse.
Regarding “Enterococcus hirae strain 13144 [Peptide 13144]”, the “TC1 response against TMP1 in mice gavaged with the strain (IFNγ ELISpot)” value (“TC1 response against TMP1” for short) is “mounted a TC1 response against TMP1”.

For the substance “Enterococcus hirae strain IGR11 [IGR 11]”, the “TC1 response against TMP1” value was “mounted a TC1 response against TMP1”. Enterococcus hirae strain IGR7 [IGR 7]: the “TC1 response against TMP1” value is on record as “mounted a TC1 response against TMP1”.
